# Ab-14 heavy chain CDR variants: yeast mating affinities

The target is the same throughout: PDVDLGDISGINAS, from the HR2 region of SARS-CoV-2 spike.

Parent scFv Ab-14: VH joined to VL by three GGGGS repeats. Changes lie in the heavy chain CDRs alone.
VH: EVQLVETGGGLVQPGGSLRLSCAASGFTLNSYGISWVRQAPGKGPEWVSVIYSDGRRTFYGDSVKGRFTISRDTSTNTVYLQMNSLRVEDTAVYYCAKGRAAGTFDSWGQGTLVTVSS
VL: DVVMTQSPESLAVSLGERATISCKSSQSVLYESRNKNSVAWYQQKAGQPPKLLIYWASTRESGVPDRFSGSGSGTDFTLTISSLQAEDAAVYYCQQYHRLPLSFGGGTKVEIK

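Phage display of a naive human antibody library on the peptide gave the parent. Library AAYL49 holds single substitutions and randomly drawn double and triple substitutions in the CDRs. In AlphaSeq, yeast of one mating type display the scFv and yeast of the other type display the target. After mating in shaken culture at 30 °C for 16 h, diploids were selected and their barcode pairs sequenced. Scores were corrected for input abundance and mapped to Kd with protein pairs of known affinity run in the same pool. There are three technical replicates.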

The parent's heavy chain CDRs are GFTLNSYGIS, VIYSDGRRTFYGDSVK, GRAAGTFDS; each variant's own CDRs replace them letter for letter.
Every variant below is changed at T104 of the VH (sequential numbering).
Kd is apparent (estimated from mating counts) and averaged on the log scale over replicates with a signal. Smaller is tighter.
Where no diploid with the target was found in any replicate, the entry reads "no signal": below detection, most likely a poor binder, though not proof of it.
For reference, the parent read 4.4 nM as the reference entry and 13 µM (one replicate of three) as a member of this library.

The variant GFTLNGYGIS, VIYSDGRRTFYGDSVK, GRAAGFWDS gave no signal (0 of 3 replicates; controls 1 of 9).
The variant GFTLNSYGIS, VIYSDGERTFYGISVK, GRAAGEFDS gave no signal (0 of 3 replicates; controls 0 of 9).
The variant GHTLNSYGIS, VIYSDWRRTFYGDSVK, GRAAGCFDS gave 76 nM (1 of 3 replicates; controls 0 of 9).
The variant TFTLNSYGIS, VIYSDGRRTFYGDSSK, GRAAGEFDS gave no signal (0 of 3 replicates; controls 3 of 9).
The variant GFTLNSYGIS, VIYSDGRRLFYGDSVK, GRAAGWFDS gave no signal (0 of 3 replicates; controls 0 of 9).
The variant PFTLNSAGIS, VIYSDGRRTFYGDSVK, GRAAGYFDS gave 230 µM (2 of 3 replicates; controls 7 of 9).
The variant GFELNSYGIS, VTYSDGRRTFYGDSVK, GRAAGKFDS gave 22 µM (2 of 3 replicates; controls 3 of 9).
The variant GFTLNSYGIS, VIYSDGERTFYGDSVL, GRAAGMFDS gave 390 nM (3 of 3 replicates; controls 3 of 9).
The variant GFTLNSYGIS, VIYSDGRRTFYGDSVK, GRAAGVFDS gave 4.4 µM (2 of 3 replicates; controls 0 of 9).
The variant GFTLNSYGNS, VIYSDGRRTFYGDSVK, GVAAGRFDS gave no signal (0 of 3 replicates; controls 1 of 9).
The variant GFTLNSYGIM, VIYSDGRRTFYGDSVK, GRAAGYFDS gave no signal (0 of 3 replicates; controls 0 of 9).
The variant GFTLNSYGIS, VIYSDGRRTFYGDSVK, GRAPGAFRS gave 96 nM (3 of 3 replicates; controls 2 of 9).
The variant GFTLNSYGIS, VIYSDGRRTFYGDSVV, GRAAFRFDS gave 3.7 µM (1 of 3 replicates; controls 0 of 9).
The variant GVTLNSYGIS, VIYSDGRRTFYKDSVK, GRAAGPFDS gave no signal (0 of 3 replicates; controls 1 of 9).
The variant GFTLNSYGIS, VIYSDGRITFQGDSVK, GRAAGIFDS gave no signal (0 of 3 replicates; controls 1 of 9).
The variant GVTLNSYGIS, VIYSDGRRTFYGDSVK, GRARGLFDS gave no signal (0 of 3 replicates; controls 1 of 9).
The variant GFTLESYGIS, VIYSDGRRTFYGDSVK, GRAAGNFVS gave 2.0 µM (1 of 3 replicates; controls 3 of 9).
The variant GFTLNSYGIS, VIYSDGRRTFYGVPVK, GRAAGVFDS gave no signal (0 of 3 replicates; controls 0 of 9).
The variant GFTLNSYGIT, VIYSDGRRTFYGDSVK, GRVAGQFDS gave no signal (0 of 3 replicates; controls 0 of 9).
The variant GFTLNSYGYS, VIYSDGRRTFYGDSVK, GRPAGIFDS gave no signal (0 of 3 replicates; controls 0 of 9).
The variant VFTLNSYGIS, VIYSDGRMTFYGDSVK, GRAAGPFDS gave no signal (0 of 3 replicates; controls 0 of 9).
The variant NFTLNSYGIS, VIYSDGRRTFYGDSVK, GRFAGCFDS gave 180 µM (1 of 3 replicates; controls 2 of 9).
The variant GFTLNSYGIS, VIYSDGRRTFYEDSVK, GRAAGVFDS gave 790 nM (2 of 3 replicates; controls 0 of 9).
The variant GFTLNSYGIS, VIYSDGYRTFPGDSVK, GRAAGQFDS gave no signal (0 of 3 replicates; controls 1 of 9).
The variant GFTINSYGIS, VIYSDGRRTFYGDSVK, GRAAGDFDM gave no signal (0 of 3 replicates; controls 1 of 9).
The variant GFTLYFYGIS, VIYSDGRRTFYGDSVK, GRAAGGFDS gave 20 µM (2 of 3 replicates; controls 5 of 9).
The variant GFTDNSYGIS, VIYSDGRRTFYGDSVK, GRAAGPFDS gave 140 nM (1 of 3 replicates; controls 0 of 9).
The variant GFTLNSYGIS, VIYSDGRRTFYGDSVP, GRAAGPFDS gave 830 nM (1 of 3 replicates; controls 0 of 9).
The variant GFNLNSYGIS, LIYSDGRRTFYGDSVK, GRAAGWFDS gave no signal (0 of 3 replicates; controls 0 of 9).
The variant GFTLNSYGIS, VISSDGRRTFYGDSVK, GRAHGWFDS gave 1.7 µM (1 of 3 replicates; controls 1 of 9).

The closing 2 entries, repeated:

CDR-H1	CDR-H2	CDR-H3	Kd (apparent)	replicates with signal	control signals
GFNLNSYGIS	LIYSDGRRTFYGDSVK	GRAAGWFDS	no signal	0 of 3	0 of 9
GFTLNSYGIS	VISSDGRRTFYGDSVK	GRAHGWFDS	1.7 µM	1 of 3	1 of 9

As a blank, each scFv also met three strains without target: over library AAYL49, 15% of these pairings were detected, typically at 11 µM and seldom below 680 nM. The control count says in how many pairings with the empty strains this scFv gave a signal.

Values reported by Engelhart et al. 2022, doi:10.1038/s41597-022-01779-4 (FLAb copy).